Conditions: rat, in vivo

metformin tocopherol phosphate (1:2)
colonic absorption compared to metformin hydrochloride: absorbed much faster and more extensively than metformin hydrochloride
